In US10670612B2, “Immunoassay standards and measurement of clinical biomarkers using intra-assay calibration standards” (Saladax Biomedical, Inc., priority 2010, dated 2020):

Test: Dynamic light scattering
Type: physicochemical
Settings: for % Intensity / % Mass / % Pd / Mw-R / Radius: phosphate buffer pH 7.4, 25° C.
Method: One set was prepared at 1.0 mg/ml, the second set was prepared at 0.10 mg/ml, and stored at room temperature. Peptides were dissolved by vortexing for 1 min, and centrifuged in a microcentrifuge for 5 min at 14,000 rpm, at room temperature. For Aβ42 samples (MSD), vials containing 0.1 mg peptide were suspended in 1.0 ml buffer, and treated as above. A volume (200 μl) of each centrifuged 1.0 mg/ml stock was transferred to a 0.5 ml polypropylene tube, and provided for NMR analysis.
The absorbance spectra of all samples were recorded (220-750 nm) using a NANODROP® ND-1000 instrument, and blanked against the buffer. Dynamic light scattering analysis was conducted on the peptides in a 384 well polystyrene plate (CORNING®, type 3540) with a Wyatt DLS DynaPro plate reader. Data collection and analysis was completed using software from the manufacturer (DYNAMICS, versions 7.0.0.94 and 7.0.1.12). Each peptide was evaluated in triplicate with 30 μl loaded per well, and overlaid with 5 μl mineral oil, to minimize evaporation. Buffer blanks were also included in the analysis for comparison. After loading the plate, a transparent adhesive sealing tape cover was applied to the plate and the plate was centrifuged for 2 min at 1000 rpm. Each sample on the plate was read 30 times, 5 sec per acquisition, maintaining a temperature of 25° C. Data sets were collected on both the 1.0 mg/ml and 0.10 mg/ml samples over the course of 27 days. The adhesive cover was removed to read the samples in the plate reader, and used to cover the plate between readings over the 27 day time course.
FIGS. 7A through 7F show dynamic light scattering data. In FIGS. 7A-F, the full length Aβ42 peptide was subjected to DLS analysis and compared to four representative modified peptides. […] FIG. 7a represents the raw data accumulated for all five peptides. Shown is the intensity autocorrelation versus time. […] FIGS. 7b-7f depict the percent mass versus the radius of the peptides. Monomeric peptides would be represented by a larger percent mass at the smaller radius size.

| Substance | % Intensity (DLS Peak 1) [%] | % Mass (DLS Peak 1) [%] | % Pd (DLS Peak 1) [%] | Mw-R (DLS Peak 1) [kDa] | Radius (DLS Peak 1) [nm] | % Intensity (DLS Peak 2) [%] | % Mass (DLS Peak 2) [%] | % Pd (DLS Peak 2) [%] | Mw-R (DLS Peak 2) [kDa] | Radius (DLS Peak 2) [nm] | % Intensity (DLS Peak 3) [%] | % Mass (DLS Peak 3) [%] | % Pd (DLS Peak 3) [%] | Mw-R (DLS Peak 3) [kDa] | Radius (DLS Peak 3) [nm] | also measured |
| --- | --- | --- | --- | --- | --- | --- | --- | --- | --- | --- | --- | --- | --- | --- | --- | --- |
| DAEFRHDSGYEVHHQK-{PEG(9-atoms}6-MVGGVVIA (DAEFRHDSGYEVHHQKMVGGVVIA; (PEG9)6 linker; Modified Peptide; (17)..(34) Sequence comprises a PEG(9-ATOMS)6 linker located between Lys at position 16 and Met at position 17) [GS#2, native Aβ42 amino acids (1-16)-(PEG_9)6 linker-native Aβ42 amino acids (35-42)] | 1.6 | 98.0 | 4.3 | 3.0 | 0.9 | 3.4 | 1.8 | 1.9 | 117.0 | 4.6 | 76.1 | 0.1 | 3.8 | 15580.0 | 36.9 | % Intensity (DLS Peak 4): 18.9%; % Mass (DLS Peak 4): 0.1%; % Pd (DLS Peak 4): 4.5%; Mw-R (DLS Peak 4): 572266.0 kDa; Radius (DLS Peak 4): 172.0 nm |
| DAEFRHDSGYEVHHQK-{PEG(20-atoms}3-GGVVIA (DAEFRHDSGYEVHHQKGGVVIA; (PEG20)3 linker; Modified Peptide; (17)..(36) Sequence comprises a PEG(20-ATOMS)3 linker located between Lys located at position 16 and the Gly located at position 17) [GS#1, native Aβ42 amino acids (1-16)-(PEG_20)3 linker-native Aβ42 amino acids (37-42)] | 6.3 | 99.9 | 4.6 | 5.0 | 1.2 | 93.7 | 0.1 | 3.9 | 29512.0 | 48.4 |  |  |  |  |  |  |
| DAEFRHDSGYEVHHQK-PEG(9-ATOMS)5-IGLMVGGVVIA (DAEFRHDSGYEVHHQKIGLMVGGVVIA; (PEG9)5 linker; Modified Peptide; (17)..(31) Sequence comprises a PEG(9-ATOMS)5 linker located between Lys at position 16 and Ile at position 17) [GS#3, native Aβ42 amino acids (1-16)-PEG_9)5 linker-native Aβ42 amino acids (32-42)] | 0.4 | 57.9 | 0.0 | 119.0 | 4.5 | 4.8 | 19.7 | 4.5 | 2101.0 | 15.7 | 94.8 | 22.4 | 4.5 | 51794.0 | 61.6 | aggregation state in solution by DLS (DLS, FIGS. 7A-F): did retain some aggregation |
